What was measured:
Type in all cases: cell-based, human
HCT-116 (Colon) = experiment: NCI Developmental Therapeutics antiproliferative assay, HCT-116
Procedure: (§1) Biological Results. The indenoisoquinoline analogues were tested for antiproliferative activity in the National Cancer Institute's Developmental Therapeutics Assay against cell lines derived from approximately 60 different human tumors. […] Results are reported in Table 2 as GI50 values for selected cell lines, and overall antiproliferative potency is quantified as a mean-graph midpoint (MGM).

DU-145 (Prostate) = experiment: NCI Developmental Therapeutics antiproliferative assay, DU-145
Procedure: as §1

HOP-62 (Lung) = experiment: NCI Developmental Therapeutics antiproliferative assay, HOP-62
Procedure: as §1

UACC-62 (Melanoma) = experiment: NCI Developmental Therapeutics antiproliferative assay, UACC-62
Procedure: as §1

| Compound | GI50 (HCT-116 (Colon)) [µM] | GI50 (DU-145 (Prostate)) [µM] | GI50 (HOP-62 (Lung)) [µM] | GI50 (UACC-62 (Melanoma)) [µM] |
| --- | --- | --- | --- | --- |
| O=C1c2ccccc2-c2c1c1ccccc1c(=O)n2C[C@H](O)[C@H](O)[C@H](O)CO [Compound 17b, (2′S,3′S,4′R)-5,6-Dihydro-6-(2′,3′,4′,5′-tetrahydroxypentyl)-5,11-dioxo-11H-indeno[1,2-c]isoquinoline] | 3.39 | 1.32 | 2.95 |  |
| O=C1c2ccccc2-c2c1c1ccccc1c(=O)n2C[C@@H](O)[C@H](O)[C@H](O)CO [Compound 17a, (2′R, 3′S, 4′R)-5,6-Dihydro-6-(2′,3′,4′,5′-tetrahydroxypentyl)-5,11-dioxo-11H-indeno[1,2-c]isoquinoline] |  | 16.6 |  |  |
| O=C1c2ccccc2-c2c1c1ccccc1c(=O)n2C[C@H](O)[C@@H](O)[C@H](O)CO [Compound 17d, (2′S,3′R,4′R)-5,6-Dihydro-6-(2′,3′,4′,5′-tetrahydroxypentyl)-5,11-dioxo-11H-indeno[1,2-c]isoquinoline] | 3.39 |  |  | 2.88 |
| O=C1c2ccccc2-c2c1c1ccccc1c(=O)n2C[C@@H](O)[C@@H](O)[C@H](O)CO [Compound 17e, (2′R,3′R,4′R)-5,6-Dihydro-6-(2′,3′,4′,5′-tetrahydroxypentyl)-5,11-dioxo-11H-indeno[1,2-c]isoquinoline] | 3.39 | 3.98 |  |  |

From patent US9682990B2, “Alcohol-, diol-, and carbohydrate-substituted indenoisoquinolines as topoisomerase I inhibitors” (Purdue Research Foundation, priority 2011, dated 2017)
